Test results: US10065970B2 (Genentech, Inc., priority 2015, dated 2018)

Sequences of proteins named here, by UniProt entry; tags and fusion partners are left off.
UniProt P42336, whole entry: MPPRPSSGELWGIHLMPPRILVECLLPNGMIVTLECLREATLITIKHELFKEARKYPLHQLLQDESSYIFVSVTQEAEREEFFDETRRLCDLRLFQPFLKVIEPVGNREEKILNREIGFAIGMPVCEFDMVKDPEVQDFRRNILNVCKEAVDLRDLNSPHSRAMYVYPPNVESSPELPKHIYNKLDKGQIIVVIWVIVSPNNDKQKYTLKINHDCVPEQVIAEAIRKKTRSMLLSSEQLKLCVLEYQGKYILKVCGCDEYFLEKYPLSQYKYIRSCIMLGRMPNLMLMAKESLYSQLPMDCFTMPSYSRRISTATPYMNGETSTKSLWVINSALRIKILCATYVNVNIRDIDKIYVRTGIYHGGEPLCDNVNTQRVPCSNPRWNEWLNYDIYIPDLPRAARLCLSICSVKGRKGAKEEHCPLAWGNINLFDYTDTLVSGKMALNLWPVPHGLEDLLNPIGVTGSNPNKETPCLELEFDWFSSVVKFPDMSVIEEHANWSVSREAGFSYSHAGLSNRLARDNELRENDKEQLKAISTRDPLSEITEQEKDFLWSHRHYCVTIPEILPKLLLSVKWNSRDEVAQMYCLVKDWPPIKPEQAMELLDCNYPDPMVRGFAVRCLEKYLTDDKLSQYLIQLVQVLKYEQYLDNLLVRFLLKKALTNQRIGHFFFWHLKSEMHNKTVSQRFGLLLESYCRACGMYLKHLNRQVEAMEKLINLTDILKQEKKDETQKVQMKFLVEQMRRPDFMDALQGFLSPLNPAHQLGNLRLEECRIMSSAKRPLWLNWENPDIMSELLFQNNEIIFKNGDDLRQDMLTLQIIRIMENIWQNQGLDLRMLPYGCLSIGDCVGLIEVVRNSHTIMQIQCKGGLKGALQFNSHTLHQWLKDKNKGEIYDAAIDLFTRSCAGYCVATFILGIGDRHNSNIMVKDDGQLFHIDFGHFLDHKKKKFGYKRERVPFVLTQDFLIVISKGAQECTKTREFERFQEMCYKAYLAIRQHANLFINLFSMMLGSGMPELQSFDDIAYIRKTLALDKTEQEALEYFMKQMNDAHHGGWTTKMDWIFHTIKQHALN

Target: PI3Kα (alpha) (Homo sapiens (Human), UniProt P42336)
Test: p110α (alpha) PI3K Binding Assay (ADP-Glo lipid kinase reaction)
Type: biochemical
Conditions: PI3K alpha 0.2 nM, ATP 40 μM, PIP2:3PS 50 μM, 120 min, room temperature; Ki by Morrison Equation; read-out: PI3Kα-(alpha) ATP (Ki) micromolar
Experimental: The ability of a compound of the invention to act as an inhibitor of PI3Kα was determined using the methods of Example 901.
PI3K Binding assays are intended for determining the biochemical potency of small molecule PI3K inhibitors. The PI3K lipid kinase reaction is performed in the presence of PIP2:3PS lipid substrate (Promega #V1792) and ATP. Following the termination if the kinase reaction, turnover of ATP to ADP by the phosphorylation of the lipid substrate is detected using the Promega ADP-Glo™ (Promega #V1792) assay. Reactions are carried out using the following conditions:
After 120 minutes of reaction time, the kinase reaction is terminated. Any ATP remaining after the reaction is depleted, leaving only ADP. Then the Kinase Detection Reagent is added to convert ADP to ATP, which is used in a coupled luciferin/luciferase reaction. The luminescent output is measured and is correlated with kinase activity.
All reactions are carried out at room temperature. A 3 μl mixture (1:1) of enzyme/lipid substrate solution is added to a 384 well white assay plate (Perkin Elmer #6007299) containing 50 nl of test compound or DMSO only for untreated controls. The reaction is started by the addition of 2 μl ATP/MgCl2. The kinase reaction buffer contains 50 mM HEPES, 50 mM NaCl, 3 mM MgCl2, 0.01% BSA, 1% DMSO, and enzyme and substrate concentrations as indicated in the above table. The reaction is stopped by the addition of 10 μL ADP-Glo reagent. Plates are read in a Perkin Elmer Envision system using luminescence mode. 10 point dose response curves are generated for each test compound. Ki values for each compound are determined using the Morrison Equation.

| Ki | Structure (SMILES) |
| --- | --- |
| 0.071 nM | NC(=O)[C@@H]1CCCN1c1cc2c3c(c1)nc(-c1ccc4oc(N)nc4c1)n3CCCO2 [Example 104, (S)-1-(1-(2-Aminobenzo[d]oxazol-5-yl)-8,9-dihydro-7H-6-oxa-2,9a-diazabenzo[cd]azulen-4-yl)pyrrolidine-2-carboxamide] |
| 30.6 nM | COc1nc(C)cc(-c2nc3cc(N[C@H](C(N)=O)C4CC4)cc4c3n2CCCO4)n1 [Example 121, (S)-2-Cyclopropyl-2-((1-(2-methoxy-6-methylpyrimidin-4-yl)-8,9-dihydro-7H-6-oxa-2,9a-diazabenzo[cd]azulen-4-yl)amino)acetamide] |
| 52.9 nM | NC(=O)c1cccc(-c2nc3cc(N[C@H](C(N)=O)C4CC4)cc4c3n2CCCO4)c1 [Example 146, (S)-3-(4-((2-Amino-1-cyclopropyl-2-oxoethyl)amino)-8,9-dihydro-7H-6-oxa-2,9a-diazabenzo[cd]azulen-1-yl)benzamide] |
| 6.12 nM | NC(=O)[C@@H](Nc1cc2c3c(c1)nc(-c1ccc4ncc(O)cc4c1)n3CCCO2)C1CC1 [Example 189, (S)-2-Cyclopropyl-2-((1-(3-hydroxyquinolin-6-yl)-8,9-dihydro-7H-6-oxa-2,9a-diazabenzo[cd]azulen-4-yl)amino)acetamide] |
| 4.59 nM | NC(=O)[C@@H]1CCCN1c1cc2c3c(c1)nc(-c1ccc4[nH]nnc4c1)n3CCCO2 [Example 200, (5)-1-(1-(1H-Benzo[d][1,2,3]triazol-5-yl)-8,9-dihydro-7H-6-oxa-2,9a-diazabenzo[cd]azulen-4-yl)pyrrolidine-2-carboxamide] |
| 0.035 nM | NC(=O)[C@@H]1CCCN1c1cc2c3c(c1)nc(-c1ccc4nc(N)sc4c1)n3CCCCO2 [Example 239, (S)-1-(1-(2-Aminobenzo[d]thiazol-6-yl)-7,8,9,10-tetrahydro-6-oxa-2,10a-diazacycloocta[cd]inden-4-yl)pyrrolidine-2-carboxamide] |
| 0.03 nM | C[C@@H](C(N)=O)N(C)c1cc2c3c(c1)nc(-c1ccc4oc(N)nc4c1F)n3CCCCO2 [Example 270, (S)-2-((1-(2-Amino-4-fluorobenzo[d]oxazol-5-yl)-7,8,9,10-tetrahydro-6-oxa-2,10a-diazacycloocta[cd]inden-4-yl)(methyl)amino)propanamide] |
| 0.045 nM | CO[C@@H]1CCN(c2cc3c4c(c2)nc(-c2ccc5nc(N)sc5c2)n4CCCCO3)[C@@H]1C(N)=O [Example 300, (2S,3R)-1-(1-(2-Aminobenzo[d]thiazol-6-yl)-7,8,9,10-tetrahydro-6-oxa-2,10a-diazacycloocta[cd]inden-4-yl)-3-methoxypyrrolidine-2-carboxamide] |
